# Laboratory results as given in US6497872B1, “Neural transplantation using proliferated multipotent neural stem cells and their progeny” (NeuroSpheres Holdings Ltd., priority 1991, dated 2002).
# B1: BMP-2: bone morphogenic protein (BMP-2), Chiron Corp. (protein, UniProt P12643 283-396, looked up)
# Bone morphogenetic protein 2: QAKHKQRKRLKSSCKRHPLYVDFSDVGWNDWIVAPPGYHAFYCHGECPFPLADHLNSTNHAIVQTLVNSVNSKIPKACCVPTELSAISMLYLDENEKVVLKNYQDMVVEGCGCR
# Tested on: Primary striatal cells
# Assay: Striatum-derived neurosphere proliferation in response to proliferative and regulatory factors (Example 43, Paradigm 1)
# Assay type: cell-based, mouse
# Parameters: key to Size of neurospheres compared to PROLIFERATIVE FACTORS alone: ++: much larger; +: larger; =: approximately the same size; ˜: variable in size; −: smaller; −−: much smaller
# Settings: for Numbers of neurospheres generated (#): decrease (−) or increase (+) per well compared with absence of the REGULATORY FACTOR: 10-12 days
# Description: Paradigm 1: Primary striatal cells prepared as outlined in Example 1 were suspended in Complete Medium, without growth factors, plated in 96 well plates (Nunclon) and incubated as described in Example 4. Following a one hour incubation period, a specific proliferative factor, or a combination of proliferative factors including EGF, or bFGF (recombinant human bFGF: R & D Systems), or a combination of EGF and bFGF, or EGF plus FGF plus heparan sulfate (Sigma), or bFGF plus heparan sulfate made up in Complete Medium at a concentration of 20 ng/ml for each of the growth factors and 2 μg/ml for heparan sulfate), was added to each well of the plate.
# Activin, BMP-2, TGF-β, IL-2, IL-6, IL-8, MIP-1∂, MIP-1β, MIP-2 (all obtained from Chiron Corp.), TNFα, NGF (Sigma), PDGF (R&D Systems), EGF and CNTF (R. Dunn and P. Richardson, McGill University) were made up in separate flasks of compete medium to a final concentration of 0.2 μg/ml. Retinoic acid (Sigma) was added at a concentration of 10^−6 M. 10 μl of one of these regulatory factor-containing solutions was added to each proliferative factor-containing well of the 96 well plates. Control wells, containing only proliferative factors, were also prepared.
# […] None of these regulatory factors, with the exception of EGF, when used in the absence of a proliferation-inducing factor such as EGF or FGF, has an effect on neural stem cell proliferation.
# The activin, BMP-2, TGF-β. IL-2, IL-6, IL-8, MIP-1∂, MIP-1β, MIP-2, TNFα and EGF additions were repeated every second day, CNTF which was added each day and retinoic acid, NGF and PDGF were added only once, at the beginning of the experiment. The cells were incubated for a period of 10-12 days. The number of neurospheres in each well was counted and the resulting counts tabulated using Cricket Graph III. Other relevant information regarding sphere size and shape were also noted.
# [1] = PROLIFERATIVE FACTORS EGF + bFGF
# [2] = PROLIFERATIVE FACTORS EGF + bFGF + Heparan
# [3] = PROLIFERATIVE FACTORS bFGF + Heparan
molecule,measurement,setting,value
B1,Numbers of neurospheres generated (#): decrease (−) or increase (+) per well compared with absence of the REGULATORY FACTOR,PROLIFERATIVE FACTOR EGF 20 ng/ml,−100%
same,Size of neurospheres compared to PROLIFERATIVE FACTORS alone,PROLIFERATIVE FACTOR bFGF,=
same,Numbers of neurospheres generated (#): decrease (−) or increase (+) per well compared with absence of the REGULATORY FACTOR,PROLIFERATIVE FACTOR bFGF 20 ng/ml,−5%
same,Size of neurospheres compared to PROLIFERATIVE FACTORS alone,[1],−−
same,Size of neurospheres compared to PROLIFERATIVE FACTORS alone,[2],−−
same,Numbers of neurospheres generated (#): decrease (−) or increase (+) per well compared with absence of the REGULATORY FACTOR,[2],+10%
same,Numbers of neurospheres generated (#): decrease (−) or increase (+) per well compared with absence of the REGULATORY FACTOR,[1],+16%
same,Size of neurospheres compared to PROLIFERATIVE FACTORS alone,[3],−
same,Numbers of neurospheres generated (#): decrease (−) or increase (+) per well compared with absence of the REGULATORY FACTOR,[3],−3%
same,neurosphere proliferation in response to EGF,dose of 10 ng/ml,completely abolished neurosphere proliferation
